Test system: HEK-293T
Experiment: Inhibition of cell growth in HEK293T cells incubated for 72 hrs by CellTiter-blue reagent based assay
Type: functional
Conditions: Homo sapiens

How did the IC50 turn out when Cc1sc2c(c1C)C(c1ccc(Cl)cc1)=N[C@@H](CC(=O)OC(C)(C)C)c1nnc(C)n1-2 was run?
Its IC50 is 107 nM.

From ChEMBL document CHEMBL5029173, “Differential BET Bromodomain Inhibition by Dihydropteridinone and Pyrimidodiazepinone Kinase Inhibitors” (J Med Chem, 2021)
